Assay results reported in PubChem BioAssay (NCI).
“And” between values parts separate entries of the source, which are not always exact repeats. Equal entries are not always repeated.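 Step 1: Grow cells in 96-well plates. Step 2: Expose to compound for 48 hours at 5 concentrations. Step 3: Interpolate endpoints linearly; if unreached, use highest concentration. GI50 marks 50% less growth. TGI: total growth inhibition.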

Assays:
Experiment in all cases: NCI tumour cell line growth inhibition, 48 h
KM20L2 colon = test system: KM20L2 colon
RPMI-8226 leukemia = test system: RPMI-8226 leukemia
K-562 leukemia = test system: K-562 leukemia
BT-549 breast = test system: BT-549 breast
OVCAR-3 ovarian = test system: OVCAR-3 ovarian
MALME-3M melanoma = test system: MALME-3M melanoma
T-47D breast = test system: T-47D breast
SNB-78 CNS = test system: SNB-78 CNS
NCI-H460 lung = test system: NCI-H460 lung
P388 leukemia = test system: P388 leukemia
SW-620 colon = test system: SW-620 colon
KM12 colon = test system: KM12 colon
SN12K1 renal = test system: SN12K1 renal
HCT-116 colon = test system: HCT-116 colon
LXFL 529 NSCLC = test system: LXFL 529 NSCLC
DMS 114 small cell lung = test system: DMS 114 small cell lung
LOX IMVI melanoma = test system: LOX IMVI melanoma
SR leukemia = test system: SR leukemia
CCRF-CEM leukemia = test system: CCRF-CEM leukemia
HS 578T breast = test system: HS 578T breast
HL-60(TB) leukemia = test system: HL-60(TB) leukemia
DLD-1 colon = test system: DLD-1 colon
HCT-15 colon = test system: HCT-15 colon
NCI-H522 lung = test system: NCI-H522 lung
M19-MEL melanoma = test system: M19-MEL melanoma
DMS 273 small cell lung = test system: DMS 273 small cell lung
NCI/ADR-RES ovarian = test system: NCI/ADR-RES ovarian
MCF7 breast = test system: MCF7 breast
SNB-75 CNS = test system: SNB-75 CNS
UACC-62 melanoma = test system: UACC-62 melanoma

CC1=C[C@H]2O[C@@H]3C[C@H]4OC(=O)/C=C\C=C\C(C(C)O)OCC(O)C(C)CC(=O)OC[C@@]2(C[C@@H]1O)[C@]4(C)[C@@]31CO1 (stereo partly drawn)
GI50 (KM20L2 colon): 20.7 nM and 40.9 nM | TGI (KM20L2 colon): 54.9 nM and 158 nM | TGI (RPMI-8226 leukemia): 8.91 nM | GI50 (K-562 leukemia): 2.48 nM | TGI (BT-549 breast): 7.66 nM | TGI (OVCAR-3 ovarian): 9.44 nM and 93.3 nM | TGI (MALME-3M melanoma): 4.65 nM and 30 nM | TGI (T-47D breast): 7.28 nM | GI50 (SNB-78 CNS): 4.72 nM and 44.8 nM | TGI (SNB-78 CNS): 18.1 nM and 120 nM | TGI (NCI-H460 lung): 24.6 nM and 37.8 nM | TGI (P388 leukemia): > 300000 nM | TGI (SW-620 colon): 26.5 nM and 213 nM | TGI (KM12 colon): 40.5 nM | TGI (SN12K1 renal): 41.5 nM | TGI (HCT-116 colon): 13.8 nM | GI50 (LXFL 529 NSCLC): 1.86 nM | TGI (LXFL 529 NSCLC): 3.84 nM | GI50 (DMS 114 small cell lung): 1.88 nM | TGI (DMS 114 small cell lung): 3.31 nM | TGI (LOX IMVI melanoma): 4.56 nM and 30 nM | GI50 (SR leukemia): 3.04 nM | TGI (SR leukemia): 12.5 nM | GI50 (CCRF-CEM leukemia): < 1 nM | TGI (CCRF-CEM leukemia): 2.75 nM | TGI (HS 578T breast): 3.42 nM | TGI (HL-60(TB) leukemia): 3.01 nM | GI50 (DLD-1 colon): 3.86 nM | TGI (HCT-15 colon): 42.5 nM and 311 nM | TGI (NCI-H522 lung): 3.02 nM and 30 nM | GI50 (M19-MEL melanoma): 3.41 nM | TGI (M19-MEL melanoma): 5.01 nM and 41.1 nM | GI50 (DMS 273 small cell lung): < 1 nM | GI50 (NCI/ADR-RES ovarian): 1010 nM | TGI (NCI/ADR-RES ovarian): 16200 nM | TGI (MCF7 breast): > 300000 nM | TGI (SNB-75 CNS): 18.1 nM and 85.8 nM | TGI (UACC-62 melanoma): 9.09 nM and 89.6 nM
